{"source": "patent US11578372B2", "about": "“NTRK1 fusion molecules and uses thereof” (FOUNDATION MEDICINE, INC., priority 2012, dated 2023)", "key": {"[1]": {"tested_on": "Ba/F3 cells expressing MPRIP-NTRK1 (RIP-TRKA)", "assay": "MTS proliferation assay of Ba/F3 cells expressing NTRK1 fusions", "format": "cell-based, murine", "conditions": "Ba/F3 cells expressing NTRK1 gene fusions, without IL-3"}, "[2]": {"tested_on": "Ba/F3 cells expressing empty vector", "assay": "MTS proliferation assay of Ba/F3 cells expressing empty vector in the presence of IL-3", "format": "cell-based, murine", "conditions": "supplemented with IL-3"}, "[3]": {"tested_on": "KM12 cells", "assay": "MTS proliferation assay of KM12 cells", "format": "cell-based"}, "[4]": {"tested_on": "KM12 cells", "assay": "Apoptosis in KM12 cells (YO-PRO/PI flow cytometry)", "format": "cell-based", "conditions": "24 h"}, "[5]": {"tested_on": "lung adenocarcinoma harboring MPRIP-NTRK1", "conditions": "crizotinib 250 mg twice daily"}}, "note": "“Also recorded” adds a separate entry of the source.", "data": [{"smiles": "C[C@@H](Oc1cc(-c2cnn(C3CCNCC3)c2)cnc1N)c1c(Cl)ccc(F)c1Cl", "note": "[crizotinib]", "values": [{"measurement": "inhibition of proliferation", "setting": "[1]", "result": "leads to inhibition; also recorded: less potent inhibitor"}, {"measurement": "sensitivity of Ba/F3 cells expressing empty vector", "setting": "[2]", "result": "intrinsic sensitivity"}, {"measurement": "proliferation of KM12 cells", "setting": "[3]", "result": "inhibited; also recorded: less so"}, {"measurement": "apoptosis", "setting": "[4]", "result": "induce apoptosis"}, {"measurement": "time on treatment to clinical progression", "setting": "[5]", "result": "~3", "unit": "months"}, {"measurement": "serum levels of CA125", "setting": "[5]; first evaluation", "result": "decrease"}]}]}
